# scFv variants of Ab-14 (heavy chain) against a SARS-CoV-2 spike peptide

Data: MIT Lincoln Laboratory AlphaSeq set, Engelhart et al. 2022, doi:10.1038/s41597-022-01779-4, as distributed in FLAb.

Binding partner: SARS-CoV-2 spike HR2 peptide, sequence PDVDLGDISGINAS.

Ab-14 is the parent antibody, in scFv form: VH, then the linker GGGGSGGGGSGGGGS, then VL. The light chain is unchanged in all variants.
VH: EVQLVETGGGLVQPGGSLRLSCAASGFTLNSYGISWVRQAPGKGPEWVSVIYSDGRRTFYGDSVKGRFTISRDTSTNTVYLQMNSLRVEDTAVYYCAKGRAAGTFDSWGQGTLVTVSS
VL: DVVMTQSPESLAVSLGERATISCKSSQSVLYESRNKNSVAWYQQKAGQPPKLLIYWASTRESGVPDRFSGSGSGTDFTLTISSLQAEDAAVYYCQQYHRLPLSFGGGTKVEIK

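In library AAYL49, one, two or three CDR residues were substituted; doubles and triples were drawn at random. The scFvs were displayed on barcoded MATa yeast, the peptide on MATalpha yeast. After mating in shaken culture at 30 °C for 16 h, diploids were selected and their barcode pairs sequenced. Each replicate has its own calibration line, from reference interactions of the BCL2 family. Each pool was mated in three replicate cultures.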

Substitutions are numbered in sequence along the VH above, starting at 1 (not Kabat). Affinities are written as log10 Kd with Kd in nM; a lower number is a better binder. A mean of the replicates is given; it leaves out those without a signal. An entry "ND" has no value in the source: the pair was not observed among the diploids in that replicate. This suggests poor binding but is not conclusive.

{"changes": "F59M V64M G103K", "replicates, log10 nM": "4.59 3.28 ND", "mean log10 Kd (nM)": "3.94", "control signals": "3/9 (4.05)"}
{"changes": "D54P A101L", "replicates, log10 nM": "ND ND ND", "mean log10 Kd (nM)": "ND", "control signals": "1/9 (3.04)"}
{"changes": "Y32S I34L T104F", "replicates, log10 nM": "ND 4.64 ND", "mean log10 Kd (nM)": "4.64", "control signals": "2/9 (4.59)"}
{"changes": "S35W S107W", "replicates, log10 nM": "5.84 ND ND", "mean log10 Kd (nM)": "5.84", "control signals": "0/9"}
{"changes": "D62T R100E A102R", "replicates, log10 nM": "ND ND ND", "mean log10 Kd (nM)": "ND", "control signals": "0/9"}
{"changes": "S35H Y52K S107D", "replicates, log10 nM": "ND ND ND", "mean log10 Kd (nM)": "ND", "control signals": "1/9 (4.09)"}
{"changes": "D54M D62G A101Q", "replicates, log10 nM": "ND ND ND", "mean log10 Kd (nM)": "ND", "control signals": "1/9 (4.16)"}
{"changes": "L29G V50Q A102V", "replicates, log10 nM": "4.57 4.77 ND", "mean log10 Kd (nM)": "4.67", "control signals": "3/9 (4.38)"}
{"changes": "Y52E R56M R57Y", "replicates, log10 nM": "ND ND ND", "mean log10 Kd (nM)": "ND", "control signals": "0/9"}
{"changes": "G33Q R57H A101T", "replicates, log10 nM": "ND 3.63 ND", "mean log10 Kd (nM)": "3.63", "control signals": "2/9 (3.53)"}
{"changes": "G26V V50D D54M", "replicates, log10 nM": "ND ND ND", "mean log10 Kd (nM)": "ND", "control signals": "0/9"}
{"changes": "Y32G Y52P R57C", "replicates, log10 nM": "ND ND ND", "mean log10 Kd (nM)": "ND", "control signals": "0/9"}
{"changes": "S53Y T58M A101P", "replicates, log10 nM": "5.51 ND ND", "mean log10 Kd (nM)": "5.51", "control signals": "0/9"}
{"changes": "T28M I51H", "replicates, log10 nM": "4.06 ND 4.34", "mean log10 Kd (nM)": "4.20", "control signals": "3/9 (4.32)"}
{"changes": "I51G Y52T G103H", "replicates, log10 nM": "ND ND ND", "mean log10 Kd (nM)": "ND", "control signals": "1/9 (2.19)"}
{"changes": "G33Q D54V R56G", "replicates, log10 nM": "ND ND ND", "mean log10 Kd (nM)": "ND", "control signals": "0/9"}
{"changes": "S31M R57F D106R", "replicates, log10 nM": "ND ND 3.04", "mean log10 Kd (nM)": "3.04", "control signals": "1/9 (4.44)"}
{"changes": "S63E A102S D106S", "replicates, log10 nM": "4.84 5.21 4.46", "mean log10 Kd (nM)": "4.83", "control signals": "4/9 (4.70)"}
{"changes": "G26Y T104G D106K", "replicates, log10 nM": "ND 4.52 ND", "mean log10 Kd (nM)": "4.52", "control signals": "1/9 (5.33)"}
{"changes": "Y32L S53Q T58P", "replicates, log10 nM": "ND ND ND", "mean log10 Kd (nM)": "ND", "control signals": "0/9"}
{"changes": "A101V A102W S107P", "replicates, log10 nM": "0.47 0.82 0.98", "mean log10 Kd (nM)": "0.76", "control signals": "1/9 (3.87)"}
{"changes": "G99I D106R S107C", "replicates, log10 nM": "1.44 1.42 1.11", "mean log10 Kd (nM)": "1.33", "control signals": "2/9 (3.17)"}
{"changes": "G26C Y52A S63P", "replicates, log10 nM": "ND ND ND", "mean log10 Kd (nM)": "ND", "control signals": "3/9 (5.03)"}
{"changes": "G33E S53G Y60T", "replicates, log10 nM": "ND ND ND", "mean log10 Kd (nM)": "ND", "control signals": "0/9"}
{"changes": "G26D G33P K65H", "replicates, log10 nM": "ND ND ND", "mean log10 Kd (nM)": "ND", "control signals": "1/9 (3.80)"}
{"changes": "L29N S35M D62G", "replicates, log10 nM": "3.40 ND 4.27", "mean log10 Kd (nM)": "3.83", "control signals": "0/9"}
{"changes": "V50G G55P G103Q", "replicates, log10 nM": "ND 4.19 ND", "mean log10 Kd (nM)": "4.19", "control signals": "2/9 (3.86)"}
{"changes": "G26E Y32Q I34R", "replicates, log10 nM": "ND ND 5.78", "mean log10 Kd (nM)": "5.78", "control signals": "2/9 (4.06)"}
{"changes": "T28W T58D G99H", "replicates, log10 nM": "4.23 4.42 ND", "mean log10 Kd (nM)": "4.32", "control signals": "2/9 (4.50)"}
{"changes": "F27A G33W K65I", "replicates, log10 nM": "ND ND ND", "mean log10 Kd (nM)": "ND", "control signals": "0/9"}
{"changes": "S31E G33L G55R", "replicates, log10 nM": "ND 3.98 ND", "mean log10 Kd (nM)": "3.98", "control signals": "0/9"}
{"changes": "G26A G33V T58L", "replicates, log10 nM": "ND ND ND", "mean log10 Kd (nM)": "ND", "control signals": "0/9"}

The closing 4 entries, repeated:

{"changes": "T28W T58D G99H", "replicates, log10 nM": "4.23 4.42 ND", "mean log10 Kd (nM)": "4.32", "control signals": "2/9 (4.50)"}
{"changes": "F27A G33W K65I", "replicates, log10 nM": "ND ND ND", "mean log10 Kd (nM)": "ND", "control signals": "0/9"}
{"changes": "S31E G33L G55R", "replicates, log10 nM": "ND 3.98 ND", "mean log10 Kd (nM)": "3.98", "control signals": "0/9"}
{"changes": "G26A G33V T58L", "replicates, log10 nM": "ND ND ND", "mean log10 Kd (nM)": "ND", "control signals": "0/9"}

Three control strains display no target. For library AAYL49, 15% of the pairings with them gave a signal, with a median of 4.06 and one signal in twenty below 2.83, so weak values seen in few replicates may be background. Also given: how often the same scFv was detected with the empty control strains, with their mean in brackets.